The data set concerns Nc1ncnc2c1ncn2[C@@H]1O[C@H](COP(=O)(O)OP(=O)(O)OP(=O)(O)O)[C@@H](O)[C@H]1O. Description: purified protein. The following applies: varied ATP, 4 mM MgSO4, pH 7.5, 37 C, no gallein, substrate inhibition model.

As to “K. pneumoniae PPK1 (KP) (Klebsiella pneumoniae subsp. pneumoniae MGH 78578)”, the Michaelis constant (Km) (usually the concentration of substrate that gives half-maximal velocity) turned out to be 256 ± 31 µM.

For the origin of these results see article PMC8576328, “Broad-Spectrum Inhibitor of Bacterial Polyphosphate Homeostasis Attenuates Virulence Factors and Helps Reveal Novel Physiology of Klebsiella pneumoniae and Acinetobacter baumannii” (Frontiers in Microbiology, 2021).
